Results taken from PubChem BioAssay AID485360 (National Center for Advancing Translational Sciences (NCATS), 2010).
The entries are a selection whose mix differs from that of the whole data set. Results filed as inconclusive are left out. Entries that show only a call come without a potency. The source made the active and inactive calls. Calls follow the shape of the dose curve; as a rule, active = well fitted inhibition curve with a large enough effect; inconclusive = small, poorly fitted or top-dose-only effect; inactive = no such curve, though single readings can be large or run the other way.

Sequences of proteins named here, by UniProt entry; tags and fusion partners are left off. A change or cut given only in a name is not applied to a line headed by its entry.
UniProt Q9Y468: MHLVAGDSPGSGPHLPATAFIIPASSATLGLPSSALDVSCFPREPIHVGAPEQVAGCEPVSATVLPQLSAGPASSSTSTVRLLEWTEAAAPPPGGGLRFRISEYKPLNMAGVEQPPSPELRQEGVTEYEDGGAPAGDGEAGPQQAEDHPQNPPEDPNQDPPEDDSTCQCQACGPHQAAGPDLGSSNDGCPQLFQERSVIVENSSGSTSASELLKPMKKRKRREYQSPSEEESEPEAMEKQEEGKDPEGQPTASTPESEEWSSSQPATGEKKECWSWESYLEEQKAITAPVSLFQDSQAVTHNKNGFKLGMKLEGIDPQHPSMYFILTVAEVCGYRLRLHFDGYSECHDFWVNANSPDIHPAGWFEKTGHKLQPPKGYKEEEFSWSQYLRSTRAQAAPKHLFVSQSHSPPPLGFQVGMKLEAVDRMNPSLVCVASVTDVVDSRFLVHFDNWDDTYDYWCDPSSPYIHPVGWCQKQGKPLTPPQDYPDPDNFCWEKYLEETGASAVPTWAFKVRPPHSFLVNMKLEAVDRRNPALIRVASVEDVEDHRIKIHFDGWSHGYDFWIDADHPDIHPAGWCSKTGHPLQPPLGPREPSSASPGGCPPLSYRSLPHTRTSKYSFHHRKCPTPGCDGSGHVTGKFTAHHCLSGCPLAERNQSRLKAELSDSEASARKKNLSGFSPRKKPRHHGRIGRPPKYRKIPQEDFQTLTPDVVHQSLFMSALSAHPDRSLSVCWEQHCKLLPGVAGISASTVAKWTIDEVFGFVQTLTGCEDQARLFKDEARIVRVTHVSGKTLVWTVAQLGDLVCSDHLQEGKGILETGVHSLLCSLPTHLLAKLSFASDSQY

molecular target: Lethal(3)malignant brain tumor-like protein 1 (Homo sapiens) (UniProt Q9Y468); test: qHTS Assay for the Inhibitors of L3MBTL1; details: AlphaScreen L3MBTL1–H3K9me1 peptide binding; series mostly up to 57.1 µM; also: nearly all actives have a fitted effect of over 60% in size
Potency is read from the fitted curve at half-maximal effect.

Question: Which Potency does the source give for `O=P(Nc1ccccn1)(c1ccc(Br)cc1)c1ccc(Br)cc1` here?
Answer: inactive

Question: With `O=P(Nc1nc2ccccc2s1)(c1ccccc1)c1ccccc1` as the compound, how does the Potency read?
Answer: inactive

Question: `O=[As](O)(c1ccccc1)c1ccc(O)cc1` was tested. Which Potency did it give?
Answer: inactive

Question: With `CC(=O)NC(SC(=S)N(C)C)C(Cl)(Cl)Cl` (stereo unspecified) as the compound, how does the Potency read?
Answer: inactive

Question: How did the Potency turn out when `O=[N+]([O-])c1ccc(O)c(/C=N/Nc2ccc([N+](=O)[O-])cc2[N+](=O)[O-])c1` was run?
Answer: inactive

Question: For `C(Cc1nn[nH]n1)Cc1nn[nH]n1`, which Potency is on record?
Answer: inactive

Question: Which Potency does the source give for `Nc1ccc([As](=O)(O)c2ccc([N+](=O)[O-])cc2)cc1` here?
Answer: inactive

Question: How did the Potency turn out when `CCOc1ccc(C2=NCC(CBr)S2)cc1` (stereo unspecified) was run?
Answer: inactive

Question: `Cc1ccccc1CN(C)C(=O)COC(=O)C(O)(c1ccccc1)c1ccccc1` was tested. Which Potency did it give?
Answer: inactive

Question: Which Potency does the source give for `CC(=O)Nc1ccc([As](=O)(O)O)c(O)c1` here?
Answer: inactive

Question: For `CC(=O)Nc1ccc(Oc2c([N+](=O)[O-])cc([N+](=O)[O-])cc2[N+](=O)[O-])cc1`, which Potency is on record?
Answer: inactive

Question: How did the Potency turn out when `c1ccc(-c2nn[nH]n2)c(-c2nn[nH]n2)c1` was run?
Answer: inactive

Question: For `Cc1ccc(NP(=O)(Oc2cccc(C)c2)Oc2cccc(C)c2)nc1`, which Potency is on record?
Answer: inactive

Question: How did the Potency turn out when `CCOC(=O)NC(Sc1ccccc1)C(Cl)(Cl)Cl` (stereo unspecified) was run?
Answer: inactive

Question: `O=C(NC1CCS(=O)(=O)C1)NP(=S)(Oc1ccccc1)Oc1ccccc1` (stereo unspecified) was tested. Which Potency did it give?
Answer: inactive

Question: `CCNC(=S)/N=C(\N)N[N+](=O)[O-]` was tested. Which Potency did it give?
Answer: inactive

Question: How did the Potency turn out when `CCC(=O)N1C2C3N(C(=O)CC)C1C1N(C(=O)CC)C(C(N1C(=O)CC)N3C(=O)CC)N2C(=O)CC` was run?
Answer: inactive

Question: `COC(=O)c1cc2c(s1)N=C(c1ccccc1)N(C)P2(=O)N1CCOCC1` (stereo unspecified) was tested. Which Potency did it give?
Answer: inactive

Question: With `CC(=O)NC(SC(=S)N(CC(C)C)CC(C)C)C(Cl)(Cl)Cl` (stereo unspecified) as the compound, how does the Potency read?
Answer: inactive

Question: For `Cc1ccc(OP(=O)(Nc2ccccn2)Oc2ccc(C)cc2)cc1`, which Potency is on record?
Answer: inactive

Question: With `CC(NC(=O)COC(=O)C(O)(c1ccccc1)c1ccccc1)c1ccccc1` (stereo unspecified) as the compound, how does the Potency read?
Answer: inactive

Question: `Cc1ccccc1OP(=O)(Nc1ccccn1)Oc1ccccc1C` was tested. Which Potency did it give?
Answer: inactive

Question: For `CN(C)C(=O)Oc1noc2ccccc12`, which Potency is on record?
Answer: inactive

Question: How did the Potency turn out when `O=P(Nc1nc2ccc(Cl)cc2s1)(c1ccccc1)c1ccccc1` was run?
Answer: inactive

Question: `CC(=O)Nc1ccc([As](=O)(O)O)cc1` was tested. Which Potency did it give?
Answer: inactive

Question: With `O=C(O)c1ccccc1[As](=O)(O)O` as the compound, how does the Potency read?
Answer: inactive

Question: With `Cc1cc(SC(NC(=O)c2ccc(F)cc2)C(Cl)(Cl)Cl)ncn1` (stereo unspecified) as the compound, how does the Potency read?
Answer: inactive

Question: How did the Potency turn out when `CCOP(=O)(Nc1ccccc1)OCC` was run?
Answer: inactive

Question: Which Potency does the source give for `Cc1ccc(NP(=O)(Oc2ccccc2F)Oc2ccccc2F)nc1` here?
Answer: inactive

Question: `Nc1cccc2ccc([As](=O)(O)O)cc12` was tested. Which Potency did it give?
Answer: active: 28.2 µM

Question: Which Potency does the source give for `CCN(N=Nc1nonc1N)c1nonc1N` here?
Answer: inactive

Question: `CN(C(=O)Cc1ccc(Cl)c(Cl)c1)[C@H]1CCCC[C@H]1N1CCCC1` was tested. Which Potency did it give?
Answer: inactive

Question: Which Potency does the source give for `Cc1ccc(N/C(=N/P(=O)(N2CCOCC2)N2CCOCC2)N2CCOCC2)cc1` here?
Answer: inactive

Question: Which Potency does the source give for `NC(=O)c1cc([N+](=O)[O-])cc([N+](=O)[O-])c1N` here?
Answer: inactive

Question: With `CN1CCCC(OC(=O)C(c2ccccc2)c2ccccc2)C1` (stereo unspecified) as the compound, how does the Potency read?
Answer: inactive

Question: Which Potency does the source give for `COc1ccccc1OP(=O)(Nc1ccc(C)cn1)Oc1ccccc1OC` here?
Answer: inactive

Question: How did the Potency turn out when `Cc1ccc(OP(=O)(Nc2nccs2)Oc2ccc(C)cc2)cc1` was run?
Answer: inactive

Question: `O=C(NC(Sc1ccncn1)C(Cl)(Cl)Cl)c1ccccc1` (stereo unspecified) was tested. Which Potency did it give?
Answer: inactive

Question: For `Cc1c2non([O-])c-2c(C)[n+](=O)[n+]1[O-]`, which Potency is on record?
Answer: inactive

Question: For `CC(C)CC(=O)NC(Sc1ccc(Cl)cc1)C(Cl)(Cl)Cl` (stereo unspecified), which Potency is on record?
Answer: inactive

Question: For `COc1ccc(C2=NCC(CBr)S2)cc1` (stereo unspecified), which Potency is on record?
Answer: inactive

Question: How did the Potency turn out when `CCc1nc2c(n1)c1c(non1O)c1c2no[n+]1[O-]` was run?
Answer: active: 5.01 µM

Question: Which Potency does the source give for `CC(=O)N1C2C3N(C(C)=O)C1C1N(C(C)=O)C(C(N1C(C)=O)N3C(C)=O)N2C(C)=O` here?
Answer: inactive

Question: Which Potency does the source give for `CCN(/C(=N/P(=O)(N1CCOCC1)N1CCOCC1)N1CCOCC1)c1ccc(OC)cc1` here?
Answer: inactive

Question: `Nc1ccc([As](=O)(O)c2ccc(N)cc2)cc1` was tested. Which Potency did it give?
Answer: inactive

Question: With `CC1CCN(C(=O)Oc2c(Cl)cc(Cl)c3cccnc23)CC1` as the compound, how does the Potency read?
Answer: inactive

Question: For `CC(C)=N/N=C(\N)N[N+](=O)[O-]`, which Potency is on record?
Answer: inactive

Question: How did the Potency turn out when `CN(C)C(=O)OCCc1n(C)cc[n+]1C` was run?
Answer: inactive

Question: How did the Potency turn out when `O=C(Nc1cc([As](=O)(O)O)ccc1O)c1ccccc1` was run?
Answer: inactive

Question: `O=[N+]([O-])c1ncn(CCn2ncnc2[N+](=O)[O-])n1` was tested. Which Potency did it give?
Answer: inactive

Question: `O=C(O)CNc1ccc([As](=O)(O)O)cc1` was tested. Which Potency did it give?
Answer: inactive

Question: With `O=[N+]([O-])c1cccc(NC2=NCC(CBr)S2)c1` (stereo unspecified) as the compound, how does the Potency read?
Answer: inactive

Question: With `CCOC(=O)Nc1ccc([As](=O)(O)O)c(O)c1` as the compound, how does the Potency read?
Answer: inactive

Question: For `Cc1cc(SC(NC(=O)c2ccccc2)C(Cl)(Cl)Cl)nc(C(C)C)n1` (stereo unspecified), which Potency is on record?
Answer: inactive

Question: With `CCOC(=O)Nc1cccc([As](=O)(O)O)c1` as the compound, how does the Potency read?
Answer: inactive

Question: How did the Potency turn out when `Cc1cc(SC(NC=O)C(Cl)(Cl)Cl)ncn1` (stereo unspecified) was run?
Answer: inactive

Question: `O=P(Nc1ccccn1)(c1cccc2ccccc12)c1cccc2ccccc12` was tested. Which Potency did it give?
Answer: inactive

Question: Which Potency does the source give for `O=[N+]([O-])c1ccc(Nc2ccc(Oc3ccc([N+](=O)[O-])cc3[N+](=O)[O-])cc2)c([N+](=O)[O-])c1` here?
Answer: inactive

Question: With `COP1(=S)c2c(C)nn(CCC#N)c2N=C(c2ccc(F)cc2)N1C` (stereo unspecified) as the compound, how does the Potency read?
Answer: inactive

Question: Which Potency does the source give for `O=C(COc1ccccc1)OC1CN2CCC1CC2` (stereo unspecified) here?
Answer: inactive

Question: `CCOC(=O)c1ccc(NC(=O)C(C)(CCl)SC)cc1` (stereo unspecified) was tested. Which Potency did it give?
Answer: inactive

Question: With `CCC(C)N(CC(C)C)C(=S)SC(NC(C)=O)C(Cl)(Cl)Cl` (stereo unspecified) as the compound, how does the Potency read?
Answer: inactive

Question: How did the Potency turn out when `Cc1c2c(nc3ccccc13)SC(C(Cl)Cl)C2` (stereo unspecified) was run?
Answer: inactive

Question: With `O=C(OC1CN2CCC1CC2)C12CC3CC(CC(C3)C1)C2` (stereo unspecified) as the compound, how does the Potency read?
Answer: inactive

Question: `Cc1cc(=O)[nH]c(N[N+](=O)[O-])n1` was tested. Which Potency did it give?
Answer: inactive

Question: How did the Potency turn out when `COc1ccc2nc(NP(=O)(c3ccccc3)c3ccccc3)sc2c1` was run?
Answer: inactive

Question: For `COc1cc(I)ccc1[As](=O)(O)O`, which Potency is on record?
Answer: inactive

Question: `O=[As](O)(c1ccc(O)cc1)c1ccccc1O` was tested. Which Potency did it give?
Answer: inactive

Question: With `C[As](=O)(O)c1cccc(C(=O)O)c1` as the compound, how does the Potency read?
Answer: inactive

Question: How did the Potency turn out when `Cc1ccc(OP(=O)(Nc2ccc([N+](=O)[O-])cn2)Oc2ccc(C)cc2)cc1` was run?
Answer: inactive

Question: For `Cc1ccc2nc3c(c(C)c2c1)CC(C(Cl)Cl)S3` (stereo unspecified), which Potency is on record?
Answer: inactive

Question: Which Potency does the source give for `ClCCSc1nnc(-c2cccnc2)o1` here?
Answer: inactive

Question: For `CC(C)c1ccc(OP(=O)(Nc2ccccn2)Oc2ccccc2F)cc1` (stereo unspecified), which Potency is on record?
Answer: inactive

Question: `CC(C)NC(=O)NP(=O)(Oc1ccccc1)Oc1ccccc1` was tested. Which Potency did it give?
Answer: inactive

Question: `CCN(CC)C(=S)SC(NC=O)C(Cl)(Cl)Cl` (stereo unspecified) was tested. Which Potency did it give?
Answer: inactive

Question: For `O=[N+]([O-])c1cc([N+](=O)[O-])c(-c2ccn[nH]2)s1`, which Potency is on record?
Answer: inactive

Question: Which Potency does the source give for `CCOP1(=S)c2c(C)nn(CCC#N)c2N=C(c2ccccc2F)N1C` (stereo unspecified) here?
Answer: inactive

Question: For `O=P(Nc1nccs1)(c1ccccc1)c1nc2ccccc2s1` (stereo unspecified), which Potency is on record?
Answer: inactive

Question: `CS(=O)(=O)c1cc([N+](=O)[O-])c2no[n+]([O-])c2c1` was tested. Which Potency did it give?
Answer: inactive

Question: For `O=C(O)COc1ccc([As](=O)(O)O)cc1[N+](=O)[O-]`, which Potency is on record?
Answer: inactive

Question: `Nc1ccccc1[As](=O)(O)c1ccccc1` was tested. Which Potency did it give?
Answer: inactive

Question: For `N#CCCN(C(=O)COC(=O)C(O)(c1ccccc1)c1ccccc1)c1ccc(F)cc1`, which Potency is on record?
Answer: inactive

Question: Which Potency does the source give for `CCOP1(=S)c2c(C)nn(CCC#N)c2N=C(c2ccc(F)cc2)N1C` (stereo unspecified) here?
Answer: inactive

Question: For `O=C(OC1CN2CCC1CC2)c1ccc(Cl)cc1` (stereo unspecified), which Potency is on record?
Answer: inactive

Question: `O=[As](O)(O)c1cccnc1` was tested. Which Potency did it give?
Answer: inactive

Question: For `O=[As](O)(c1cccc(O)c1)c1cccc(O)c1`, which Potency is on record?
Answer: inactive

Question: `Nc1cccc2c([As](=O)(O)O)cccc12` was tested. Which Potency did it give?
Answer: inactive

Question: How did the Potency turn out when `COc1cc(C2NCCC3(OCCO3)C2(C)C)cc(OC)c1OC` (stereo unspecified) was run?
Answer: inactive

Question: How did the Potency turn out when `CCOP(=O)(Nc1cccc2ccccc12)OCC` was run?
Answer: inactive

Question: For `CCC1=CC2Cc3nc4ccc(Cl)cc4c(N)c3C(C1)C2` (stereo unspecified), which activity, negative = inhibition is on record?
Answer: inactive: 0.552% [at 2.29 µM]

Question: `Clc1n[nH]nc1-c1nn[nH][15n]1` was tested. Which Potency did it give?
Answer: inactive

Question: For `CC(C)(C)C(=O)NC(Sc1ncccn1)C(Cl)(Cl)Cl` (stereo unspecified), which Potency is on record?
Answer: inactive

Question: With `COc1ccccc1CNC(=O)COC(=O)C(O)(c1ccccc1)c1ccccc1` as the compound, how does the Potency read?
Answer: inactive

Question: How did the Potency turn out when `CC(C)/C=N\N=C(\N)N[N+](=O)[O-]` was run?
Answer: inactive

Question: For `O=[As](O)(c1ccccc1Br)c1ccccc1Br`, which Potency is on record?
Answer: inactive

Question: With `Cc1nn(-c2ccccc2)c2c1P(=O)(N1CCOCC1)N(C)C(c1ccccc1)=N2` (stereo unspecified) as the compound, how does the Potency read?
Answer: inactive

Question: Which Potency does the source give for `CC1CCC(C(C)C)C(OP(=O)(Nc2ccccn2)c2ccccc2)C1` (stereo unspecified) here?
Answer: inactive

Question: For `O=C(/C=C/c1ccccc1)OC1CN2CCC1CC2` (stereo unspecified), which Potency is on record?
Answer: inactive

Question: How did the Potency turn out when `Nc1cccc([As](=O)(O)c2ccccc2)c1` was run?
Answer: inactive

Question: For `Cc1ccc(OCC(=O)OC2CN3CCC2CC3)cc1` (stereo unspecified), which Potency is on record?
Answer: inactive

Question: `NS(=O)(=O)c1cccc(NC(=O)COC(=O)C(O)(c2ccccc2)c2ccccc2)c1` was tested. Which Potency did it give?
Answer: inactive
